Results on two compounds are retold here after patent US9962360B2, “Compositions and methods for enhancing hair growth, promoting skin regeneration, and wound healing” (The Hospital for Sick Children, priority 2014, dated 2018).

The experiment deals with NIH-3T3 cells. The experiment can be described thus: Ki67 assay in NIH-3T3 cells. The settings on record: similar assay as for SKPs.

Regarding `CCCCC[C@H](O)/C=C/[C@H]1[C@H](O)CC(=O)[C@@H]1CCCCCCC(=O)O` [Alp, alprostadil], the “Ki67-positive NIH-3T3 cells” value is “unaffected”.
To trimebutine maleate [TM] belongs “unaffected”.
